How the values were obtained:
pERK in H358 cells = experiment: pERK inhibition in H358 cells; conditions: read-out: Cellular pERK inhibition, 4 hours treatment
Description: H358 cells (5500 cells) derived from a human lung cancer were plated in a 96 well plate in media (100 uL, RPMI with 10% FBS). After 24 hours, cells were treated for 4 hours with compound or DMSO. Cells were washed twice with room temperature TBS (200 uL) and fixed for 20 minutes with 4% paraformaldehyde diluted with TBS (150 uL). Cells were washed four times for five minutes with 0.1% TritonX/TBS (150 uL) to permeabilize the membrane. Cells were incubated with TBS blocking buffer (100 uL) at room temperature for 60 minutes. Primary antibody (Phospho-p44/42 MAPK (Erk1/2) (Thr202/Tyr204) (D13.14.4E) XP® Rabbit mAb #4370, Cell Signaling Technology; 1:200) was added, and the cells were incubated overnight at 4 C. The cells were washed four times for five minutes with 0.1% Tween 20/TBS (150 uL). Secondary antibody (IRDye® 800CW Goat-Anti-Rabbit IgG, Li-Cor Biosciences; 1:1000) and DRAQ5™ (Invitrogen; 1:2000) was added, and the cells were incubated for 1 hour at room temperature. The cells were washed four times for five minutes with 0.1% Tween 20/TBS (150 uL) and scanned using the LICOR (700 and 800 nm).

Sequences of proteins named here, by UniProt entry; tags and fusion partners are left off.
UniProt P62937, whole entry: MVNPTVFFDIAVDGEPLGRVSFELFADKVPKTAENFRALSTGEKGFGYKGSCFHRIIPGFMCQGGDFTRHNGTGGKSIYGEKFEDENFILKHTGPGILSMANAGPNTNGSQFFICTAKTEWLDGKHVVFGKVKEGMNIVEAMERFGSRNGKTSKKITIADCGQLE

cyclophilin A (CYPA) = cyclophilin A (CYPA) (Homo sapiens, UniProt P62937); experiment: CYPA-compound binary complex formation by SPR; conditions: read-out: CYPA Binding Affinity
Description: In order to determine the affinity of compounds of the invention for cyclophilin A (CYPA), we employed surface plasmon resonance binding analysis using the following reagents, instruments and protocol as supplied by the instrument manufacturer.
Reagents and Instrument • 1. Instrument: Biacore S200 (GE Healthcare Life Sciences) • 2. Running buffer: 1×HBS-P+ (1×HBS supplemented with 0.05% Tween20), pH7.4, and 2% DMSO. • 3. Ligand: CypA-Avi • 4. Analyte: Serial dilution of WDB compounds from 50 μM to 0 μM, 2-fold dilution, 10 points (10 mM stock concentration). • 5. Sensor kit: Biotin CAPture Kit (BR28-9202-34, GE Healthcare Life Sciences) • 6. Regeneration buffer: 1 volume of 1 M NaOH and 3 volumes of 8 M guanidine hydrochloride (supplied with CAPture Kit, BR28-9202-34, GE Healthcare Life Sciences)
Experimental Procedure • 1. Capture of CAPreagent: 2 μl/min for 60 seconds. • 2. Immobilization of ligand CypA: Use Fc1 as the reference cell; immobilize CypA at 4 μg/ml using 5 μl/min flowrate on Fc2 (60s), Fc3 (80s) and Fc4 (80s), respectively. • 3. Binding of analytes: Inject WDB compound dilutions sequentially at 50 μl/min for association of 60 seconds. And then let it dissociates in buffer at 50 μl/min for 60 seconds. • 4. Regeneration: 2 injections of regeneration buffer at 30 μl/min for 60 seconds to regenerate the chip surface. • 5. […]

Structure (SMILES)	IC50 (pERK in H358 cells) [µM]	Kd (cyclophilin A (CYPA)) [µM]
C=CC(=O)N1CC[C@H](C(=O)N(C)[C@H](C(=O)N[C@H]2Cc3cc(O)cc(c3)-c3ccc4c(c3)N(CC(C)(C)COC(=O)[C@@H]3CCCN(N3)C2=O)CC4(C)C#Cc2cccnc2)C(C)C)C1 (single isomer, unassigned)	> 10	–
C=CC(=O)N1CC[C@H](C(=O)N(C)[C@H](C(=O)N[C@H]2Cc3cc(O)cc(c3)-c3ccc4c(c3)N(CC(C)(C)COC(=O)[C@@H]3CCCN(N3)C2=O)CC4(C)COC)C(C)C)C1 (single isomer, unassigned)	1 to 10	–
CC(C)[C@@H](C(=O)N[C@H]1Cc2cc(O)cc(c2)-c2ccc3c(C(C)(C)C#N)cn(c3c2)CC(C)(C)COC(=O)[C@@H]2CCCN(N2)C1=O)N1CCC2(CCCN(C(=O)CCl)C2)C1=O (single isomer, unassigned)	> 10	–
CC(C)[C@@H](C(=O)N[C@H]1Cc2cc(O)cc(c2)-c2ccc3c(C(C)(C)C#N)cn(c3c2)CC(C)(C)COC(=O)[C@@H]2CCCN(N2)C1=O)N1CCCC2(CCN(C(=O)CCl)C2)C1=O (single isomer, unassigned)	< 1	< 5
